Assay results taken from ChEMBL document CHEMBL5579863, “Galectin-8N-Selective 4-Halophenylphthalazinone-Galactals Double π-Stack in a Unique Pocket” (ACS Med Chem Lett, 2024).

Assay: in vitro
Details: PAMPA

| SMILES | Papp at 5 h, 100 µM [×10⁻⁶ cm/s] |
| --- | --- |
| O=c1c2ccccc2cnn1CO[C@@H]1C=CO[C@H](CO)[C@@H]1O | > 5 |
| O=c1c2ccccc2c(-c2ccccc2)nn1CO[C@@H]1C=CO[C@H](CO)[C@@H]1O | > 5 |
